According to PubChem BioAssay (EPA / NIEHS):
This is a selection; strong and weak results do not stand in their true shares. Calls of active or inactive are those of the source. Rule for the calls: active = hit-call score of the fitted dose curve at least 0.9, where 1 is the maximum; inactive = score below 0.9.

The chains behind the UniProt entries cited, without tags or fusion partners.
UniProt P08684, whole entry: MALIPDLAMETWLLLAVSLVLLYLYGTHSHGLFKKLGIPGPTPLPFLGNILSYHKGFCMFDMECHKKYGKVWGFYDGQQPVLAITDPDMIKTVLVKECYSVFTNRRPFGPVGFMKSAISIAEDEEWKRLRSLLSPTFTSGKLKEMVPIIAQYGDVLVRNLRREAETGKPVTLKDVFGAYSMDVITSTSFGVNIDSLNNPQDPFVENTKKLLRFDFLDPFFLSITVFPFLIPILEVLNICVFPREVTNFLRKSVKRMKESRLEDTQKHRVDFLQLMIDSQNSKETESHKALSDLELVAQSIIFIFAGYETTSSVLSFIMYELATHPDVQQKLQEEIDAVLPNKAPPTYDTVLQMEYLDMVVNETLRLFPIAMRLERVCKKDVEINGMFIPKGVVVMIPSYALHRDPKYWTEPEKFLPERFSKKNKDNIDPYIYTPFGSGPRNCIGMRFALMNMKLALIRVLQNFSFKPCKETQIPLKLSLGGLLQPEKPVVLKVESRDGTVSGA
UniProt P24462, whole entry: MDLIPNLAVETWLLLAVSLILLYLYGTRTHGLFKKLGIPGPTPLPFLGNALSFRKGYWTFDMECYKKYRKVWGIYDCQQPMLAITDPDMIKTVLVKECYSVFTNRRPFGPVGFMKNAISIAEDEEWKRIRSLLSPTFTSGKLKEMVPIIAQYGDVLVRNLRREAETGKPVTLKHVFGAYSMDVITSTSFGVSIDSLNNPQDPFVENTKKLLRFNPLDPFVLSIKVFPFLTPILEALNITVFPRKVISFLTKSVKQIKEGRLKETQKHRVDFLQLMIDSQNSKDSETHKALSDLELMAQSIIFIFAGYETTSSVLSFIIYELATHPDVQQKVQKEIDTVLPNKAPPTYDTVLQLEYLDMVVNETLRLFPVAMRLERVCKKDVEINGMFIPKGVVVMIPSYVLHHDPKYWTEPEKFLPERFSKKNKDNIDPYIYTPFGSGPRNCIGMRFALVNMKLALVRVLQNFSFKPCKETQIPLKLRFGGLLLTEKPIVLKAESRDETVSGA
UniProt Q16665, whole entry: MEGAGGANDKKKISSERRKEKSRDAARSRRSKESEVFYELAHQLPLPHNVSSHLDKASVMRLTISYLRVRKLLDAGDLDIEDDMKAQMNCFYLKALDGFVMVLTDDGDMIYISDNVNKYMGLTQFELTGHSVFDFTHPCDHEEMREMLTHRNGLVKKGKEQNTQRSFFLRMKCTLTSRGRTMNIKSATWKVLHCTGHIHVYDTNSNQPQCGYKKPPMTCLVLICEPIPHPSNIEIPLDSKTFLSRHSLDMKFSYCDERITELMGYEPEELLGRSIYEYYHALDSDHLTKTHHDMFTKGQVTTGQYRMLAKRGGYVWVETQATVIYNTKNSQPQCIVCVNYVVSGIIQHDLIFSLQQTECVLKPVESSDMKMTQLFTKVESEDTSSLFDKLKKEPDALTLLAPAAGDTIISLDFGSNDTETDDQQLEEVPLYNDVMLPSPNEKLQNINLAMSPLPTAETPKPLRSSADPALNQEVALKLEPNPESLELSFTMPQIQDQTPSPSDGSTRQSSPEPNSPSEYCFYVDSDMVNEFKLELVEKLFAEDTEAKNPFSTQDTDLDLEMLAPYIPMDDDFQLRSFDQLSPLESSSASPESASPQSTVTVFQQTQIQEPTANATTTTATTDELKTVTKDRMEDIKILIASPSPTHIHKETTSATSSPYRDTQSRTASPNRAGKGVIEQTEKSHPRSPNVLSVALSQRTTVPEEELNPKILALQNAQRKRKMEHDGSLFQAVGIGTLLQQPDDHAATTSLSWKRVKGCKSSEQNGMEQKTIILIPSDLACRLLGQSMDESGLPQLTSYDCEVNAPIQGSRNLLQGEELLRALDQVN

Legend:
Conditions in all cases: actives raise or lower the signal; mRNA level, 48 h
[1] = read-out: CYP2E1 (gene 1571); assay: LTEA_HepaRG_CYP2E1: Life Technologies and Expression Analysis (LTEA) Assay for CYP2E1 using HepaRG (AID 2283485)
Method in brief: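 CYP2E1 transcript was measured by TaqMan qRT-PCR in human HepaRG cultures after 48 h chemical exposure (top 100 uM, half-log steps, 0.5% DMSO vehicle). Housekeeping-gene normalization; gain or loss fitted relative to DMSO baseline.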

[2] = read-out: CYP4A11 (gene 1579); assay: LTEA_HepaRG_CYP4A11: Life Technologies and Expression Analysis (LTEA) Assay for CYP4A11 using HepaRG (AID 2283486)
Method in brief: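 Human hepatic HepaRG cultures receive duplicate 48 h exposures across a concentration-response series topping at 100 uM. Expression changes in CYP4A11 are measured by qRT-PCR relative to DMSO controls.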

[3] = read-out: Cytochrome P450 3A4 (Homo sapiens) (UniProt P08684); assay: LTEA_HepaRG_CYP3A4: Life Technologies and Expression Analysis (LTEA) Assay for CYP3A4 using HepaRG (AID 2283487)
Method in brief: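 Differentiated HepaRG cells in serum-free induction medium exposed in duplicate for 48 h to 8 half-log concentrations up to 100 uM in 0.5% DMSO. CYP3A4 mRNA measured by qRT-PCR normalized to ACTB, GAPDH and POLR2A; bidirectional fit versus DMSO.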

[4] = read-out: DNA damage-inducible transcript 3 (DDIT3), DDIT3 (gene 1649); assay: LTEA_HepaRG_DDIT3: Life Technologies and Expression Analysis (LTEA) Assay for DNA damage-inducible transcript 3 (DDIT3) using HepaRG (AID 2283488)
Method in brief: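 qRT-PCR readout (Fluidigm TaqMan), housekeeping-normalized to ACTB, GAPDH, POLR2A. HepaRG cells, 48 h exposure, 8-point half-log series from 100 uM in 0.5% DMSO, duplicates. Gain or loss of signal fitted against DMSO baseline.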

[5] = read-out: Pro-epidermal growth factor (Homo sapiens) (UniProt P01133); assay: LTEA_HepaRG_EGF: Life Technologies and Expression Analysis (LTEA) Assay for Epidermal growth factor (EGF) using HepaRG (AID 2283489)
Method in brief: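 Concentration-response mRNA assay: HepaRG cells dosed 48 h (max 100 uM, 0.5% DMSO), EGF measured by qRT-PCR and normalized to ACTB/GAPDH/POLR2A.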

[6] = read-out: Early growth response protein 1 (EGR1) transcription factor, EGR1 (gene 1958); assay: LTEA_HepaRG_EGR1: Life Technologies and Expression Analysis (LTEA) Assay for Early growth response protein 1 (EGR1) transcription factor using HepaRG (AID 2283490)
Method in brief: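 EGR1 transcript levels quantified by qRT-PCR (Fluidigm arrays) against three housekeeping genes after 48 h chemical exposure of HepaRG cells. Eight-point half-log series topping at 100 uM, 0.5% DMSO vehicle, analyzed for gain or loss.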

[7] = read-out: Ezrin (EZR), EZR (gene 7430); assay: LTEA_HepaRG_EZR: Life Technologies and Expression Analysis (LTEA) Assay for Ezrin (EZR) using HepaRG (AID 2283491)
Method in brief: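 Differentiated human HepaRG cells, 48 h after plating, were exposed in serum-free induction medium for 48 hours to eight half-log concentrations up to 100 uM in 0.5% DMSO. EZR mRNA was measured by TaqMan qRT-PCR, normalized to ACTB, GAPDH and POLR2A, and fitted bidirectionally against DMSO.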

[8] = read-out: Cytochrome P450 3A7 (Homo sapiens) (UniProt P24462); assay: LTEA_HepaRG_CYP3A7: Life Technologies and Expression Analysis (LTEA) Assay for CYP3A7 using HepaRG (AID 2283492)
Method in brief: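 qRT-PCR of CYP3A7 in HepaRG lysates after 48 h treatment; concentration-response (8 points, max 100 uM) analysed bidirectionally relative to 0.5% DMSO controls.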

[9] = read-out: CYP3A5 (gene 1577); assay: LTEA_HepaRG_CYP3A5: Life Technologies and Expression Analysis (LTEA) Assay for CYP3A5 using HepaRG (AID 2283493)
Method in brief: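 qRT-PCR read-out: CYP3A5 transcript in HepaRG lysates, housekeeping-normalized (ACTB/GAPDH/POLR2A), fitted bidirectionally against 0.5% DMSO baseline. Exposure 48 h, eight half-log concentrations up to 100 uM, duplicates.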

[10] = read-out: Fatty Acid-Binding Protein 1 (FABP1), FABP1 (gene 2168); assay: LTEA_HepaRG_FABP1: Life Technologies and Expression Analysis (LTEA) Assay for Fatty Acid-Binding Protein 1 (FABP1) using HepaRG (AID 2283494)
Method in brief: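 FABP1 expression by TaqMan qRT-PCR, normalised to three housekeeping genes, in HepaRG cells after 48 h chemical treatment. Eight-point half-log series topping at 100 uM in 0.5% DMSO, duplicates; gain or loss fitted relative to vehicle.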

[11] = read-out: Cytochrome P450 4A22 (Homo sapiens) (UniProt Q5TCH4); assay: LTEA_HepaRG_CYP4A22: Life Technologies and Expression Analysis (LTEA) Assay for Cytochrome P450 4A22 (CYP4A22) using HepaRG (AID 2283495)
Method in brief: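 Concentration-response (8 points, max 100 uM, 0.5% DMSO) in human HepaRG liver cells after 48 h exposure. CYP4A22 mRNA by TaqMan qRT-PCR with housekeeping-gene normalization.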

[12] = read-out: Cytochrome P450 7A1 (Homo sapiens) (UniProt P22680); assay: LTEA_HepaRG_CYP7A1: Life Technologies and Expression Analysis (LTEA) Assay for Cytochrome P450 7A1 (CYP7A1) using HepaRG (AID 2283496)
Method in brief: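 Using 0.5% DMSO as vehicle and baseline, chemicals were tested in duplicate over an 8-point range from 100 uM on HepaRG cells for 48 h; qRT-PCR signals were normalised to ACTB, GAPDH and POLR2A.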

[13] = read-out: Glutathione S-Transferase (GSTA2), GSTA2 (gene 2939); assay: LTEA_HepaRG_GSTA2: Life Technologies and Expression Analysis (LTEA) Assay for Glutathione S-Transferase (GSTA2) using HepaRG (AID 2283497)
Method in brief: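 GSTA2 transcript levels came from Fluidigm TaqMan qRT-PCR normalized to three housekeeping genes, fitted in both directions against DMSO. HepaRG cultures received chemicals for 48 h in serum-free induction medium (0.5% DMSO), 8 half-log concentrations up to 100 uM, duplicate.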

[14] = read-out: Glutamate-cysteine ligase catalytic (GCLC), GCLC (gene 2729); assay: LTEA_HepaRG_GCLC: Life Technologies and Expression Analysis (LTEA) Assay for Glutamate-cysteine ligase catalytic (GCLC) using HepaRG (AID 2283498)
Method in brief: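 Expression by TaqMan qRT-PCR, normalized to three housekeeping genes (ACTB, GAPDH, POLR2A), with up- or down-regulation fitted against DMSO. HepaRG cells dosed in duplicate for 48 h with 8 half-log concentrations up to 100 uM, vehicle 0.5% DMSO.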

[15] = read-out: growth arrest and DNA damage 45 (GADD45G), GADD45G (gene 10912); assay: LTEA_HepaRG_GADD45G: Life Technologies and Expression Analysis (LTEA) Assay for growth arrest and DNA damage 45 (GADD45G) using HepaRG (AID 2283499)
Method in brief: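 Concentration-response in HepaRG: 48 h dosing, 0.5% DMSO, highest level 100 uM. GADD45G expression by qRT-PCR, normalised to endogenous controls; bidirectional fit to DMSO.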

[16] = read-out: Glutamate-cysteine ligase regulatory (GCLM), GCLM (gene 2730); assay: LTEA_HepaRG_GCLM: Life Technologies and Expression Analysis (LTEA) Assay for Glutamate-cysteine ligase regulatory (GCLM) using HepaRG (AID 2283500)
Method in brief: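 HepaRG, 48 h dosing, 100 uM top, half-log x8, 0.5% DMSO vehicle. Readout: GCLM mRNA by TaqMan qRT-PCR, housekeeping-normalized (ACTB/GAPDH/POLR2A). Curves fit bidirectionally vs DMSO baseline.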

[17] = read-out: Glutathione S-transferase M3 (GSTM3), GSTM3 (gene 2947); assay: LTEA_HepaRG_GSTM3: Life Technologies and Expression Analysis (LTEA) Assay for Glutathione S-transferase M3 (GSTM3) using HepaRG (AID 2283501)
Method in brief: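 Expression of GSTM3 is determined by qRT-PCR in human liver HepaRG cells treated 48 h with an 8-point half-log range from 100 uM in 0.5% DMSO.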

[18] = read-out: Heat shock 70 kDa protein 1 (HSPA1A), gene 3303; assay: LTEA_HepaRG_HSPA1A: Life Technologies and Expression Analysis (LTEA) Assay for Heat shock 70 kDa protein 1 (HSPA1A) using HepaRG (AID 2283502)
Method in brief: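 HepaRG, 48 h exposure, 8-pt half-log CRC from 100 uM in 0.5% DMSO, duplicates. Readout: TaqMan qRT-PCR of HSPA1A mRNA, housekeeping-normalized (ACTB/GAPDH/POLR2A). Bidirectional fit vs 0.5% DMSO baseline.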

[19] = read-out: Hypoxia-inducible factor 1-alpha (Homo sapiens) (UniProt Q16665); assay: LTEA_HepaRG_HIF1A: Life Technologies and Expression Analysis (LTEA) Assay for Hypoxia-inducible factor 1 (HIF1A) Trancription factor using HepaRG (AID 2283503)
Method in brief: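 Gain- or loss-of-signal HIF1A mRNA changes are fitted against a DMSO baseline. HepaRG cultures receive eight concentrations, highest 100 uM, for 48 h in serum-free induction medium with 0.5% DMSO.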

[20] = read-out: 3-Hydroxy-3-Methylglutaryl-CoA Synthase 2 (HMGCS2), HMGCS2 (gene 3158); assay: LTEA_HepaRG_HMGCS2: Life Technologies and Expression Analysis (LTEA) Assay for 3-Hydroxy-3-Methylglutaryl-CoA Synthase 2 (HMGCS2) using HepaRG (AID 2283504)
Method in brief: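 This steatosis marker was read as HMGCS2 mRNA change in HepaRG cells treated 48 h with up to 100 uM chemical. Normalisation used housekeeping genes; activity in either direction was fitted relative to 0.5% DMSO vehicle.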

Measured: outcome

O=[N+]([O-])c1ccccc1[N+](=O)[O-]
inactive: all assays above
